Laboratory results from PubChem BioAssay AID651589 (Sanford-Burnham Center for Chemical Genomics, 2012).
The list shows a part of the results, in another mix than the full data. Active and inactive are the calls of the source.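 The calls were made as follows: active = mean inhibition of the reporter signal across four replicates at the single tested dose of 50% or more; inactive = the rest.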

assay: HIF-1a luciferase reporter signal reduction – MiaPaCa-2 cells, single concentration, counter-screen for HIF-2a inhibitor project, confirmation (AID 651589); conditions: MiaPaCa-2 HIF-1a luciferase reporter, desferoxamine, overnight; at 18.8 µM; active compounds read high

**Q.** Which inhibition does the source give for `CN(C)C(=O)c1cc([N+](=O)[O-])cc2c1-c1c(cc([N+](=O)[O-])cc1[N+](=O)[O-])C2=O` here?
**A.** Its inhibition is active: 104%.
